Experimental findings from US10087215B2, “Stabilized SOS1 peptides” (DANA-FARBER CANCER INSTITUTE, INC., priority 2013, dated 2018) are described below.

For one data set, the target named is wildtype KRAS (Homo sapiens, UniProt P01116). The data set can be described thus: Nucleotide (GTP) exchange assay with mant-GTP. In kind it is biochemical. The conditions noted are these: mant-GTP loaded KRAS, excess unlabeled GTP (10x). How it is done: KRAS was loaded with equimolar mant-GTP (a fluorescent GTP analog), and excess unlabeled GTP (10×) is then added to the reaction mixture. The observed decrease in fluorescence reflects the GTP turnover activity at the KRAS active site. SAH-SOS peptides reduce the GTP turnover activity, as reflected by a shift of the curves from the no peptide negative control toward the inhibited exchange (2 mM MgCl2) positive control (FIG. 10).
Nucleotide exchange assays were performed as an association-dissociation experiment in which mant-GTP first associates with K-Ras followed by a dissociation step in which excess unlabeled GTP outcompetes mant-GTP, thus decreasing the fluorescence, as previously described^5. A kinetic readout of fluorescence, corresponding to the dissociation step, was recorded on a Tecan X1000 fluorescence spectrometer (excitation 360 nm, emission 440 nm). The rate of nucleotide exchange was determined by fitting a single exponential function to the dissociation phase readout from the experiment (Prism software, GraphPad). Reactions were performed with the indicated amounts of SAH-SOS peptides in buffer containing 25 mM Tris (pH 7.5), 50 mM NaCl, 1 mM DTT with 2 μM wildtype KRAS, 2 μM mantGTP and 200 μM unlabeled GTP. 2 mM MgCl2 was added as a […] to inhibit mantGTP release.

Data set [1] deals with mouse embryonic fibroblasts. The conditions noted are these: 0.5 μM FITC-conjugated peptide, 4 hours.

In the case of `CC[C@H](C)[C@H](NC(=O)CNC(=O)[C@H](Cc1ccccc1)NC(=O)[C@H](Cc1ccccc1)NC(=O)CCNC(=S)Nc1ccc2c(c1)C(=O)OC21c2ccc(O)cc2Oc2cc(O)ccc21)C(=O)N[C@@]1(C)CCCC=CCCC[C@@](C)(C(=O)N[C@@H](CC(C)C)C(=O)N[C@@H](CCCCN)C(=O)N[C@H](C(=O)N[C@@H](CCC(=O)O)C(=O)N[C@@H](CCC(=O)O)C(=O)NCC(=O)N[C@@H](CC(N)=O)C(=O)N[C@@H](CCCNC(=N)N)C(=O)N[C@@H](CCCNC(=N)N)C(N)=O)[C@@H](C)O)NC(=O)[C@H](CC(N)=O)NC(=O)[C@H]([C@@H](C)O)NC(=O)[C@H](CC(C)C)NC1=O` [SAH-SOSC3, FFGIXLTNXLKTEEGNRR], at wildtype KRAS, the “GTP exchange activity of KRAS” value is “reduce the GTP exchange activity of KRAS in vitro in a dose-responsive manner”. Also, the cellular uptake result in data set [1] is “cellular uptake”.
